{
  "source": "PubChem BioAssay AID686977",
  "about": "(Southern Research Specialized Biocontainment Screening …, 2013)",
  "note": "This is one part of the list. Entries with a potency or affinity are not part of this list. Records with an inconclusive call do not appear. Active and inactive are the calls of the source. The rule behind the calls is not given here.",
  "data": [
    {"assay": "Vibrio cholerae quorum sensing activators, luminescence (AID 686977)", "settings": "V. cholerae quorum sensing reporter, 6 h, dose 10, dose unit µg/mL, stronger effect = higher value", "values": [
      {"compound": "NC(=O)Nc1ccc([As](=O)(O)O)cc1", "luminescence": "inactive: 0"}
    ]}
  ]
}
